From article PMC8817233 (Journal of medicinal chemistry, 2021)

Tested on: HEK293, SW480 and Wnt 3a-stimulated MDA-MB-468 cells
Conditions: up to 25 μM, all three cell lines, 24 h

SMILES: CC(C)(Oc1cccc(N2CCC[C@@H](C(=O)N(Cc3ccc(-c4cn[nH]c4)cc3)C3CC3)C2)c1)C(=O)N1CCNCC1.Cl [ZW4864, (R)-N-(4-(1H-Pyrazol-4-yl)benzyl)-N-cyclopropyl-1-(3-((2-methyl-1-oxo-1-(piperazin-1-yl)propan-2-yl)oxy)phenyl)piperidine-3-carboxamide]
- FOPFlash luciferase inhibitory activity: did not show obvious inhibitory activity
